From patent US20230119324A1, “EGFR INHIBITION TRIGGERS AN ADAPTIVE RESPONSE BY CO-OPTING ANTIVIRAL SIGNALING PATHWAYS IN LUNG CANCER” (The United States Government as represented by the …, priority 2020, published 2023) come the findings set out here.

This test concerns EGFR mutant NSCLC cell lines. The test is described as follows: AlamarBlue cell viability assay, EGFR mutant NSCLC cell lines. The format is cell-based. Conditions: 0.1 µM erlotinib, IFNα1 or IFNβ1 50 ng/mL, 72 h. Here is the method:
Cell viability assays were conducted with AlamarBlue Cell Viability Reagent from ThermoFisher (Waltham, MA), following the manufacturer’s protocol. Cells were cultured in Coming (Corning, NY) 96-well black plates with clear bottom and detected by the POLARstar Omega Microplate Reader (BMG LABTECH) (excitation at 544 nm and emission at 590 nm). At least 3 independent experiments were done.

B1: IFNβ: recombinant IFNβ1, exogenous Type I interferon (protein, UniProt P01574 22-187, looked up)
Interferon beta: MSYNLLGFLQRSSNFQCQKLLWQLNGRLEYCLKDRMNFDIPEEIKQLQQFQKEDAALTIYEMLQNIFAIFRQDSSSTGWNETIVENLLANVYHQINHLKTVLEEKLEKEDFTRGKLMSSLHLKRYYGRILHYLKAKEYSHCAWTIVRVEILRNFYFINRLTGYLRN
Turning to B1, the “protection from erlotinib-induced cell death” value is “protects NSCLC cells with mutant EGFR activating from cell death”.
